{"sequences": {"note": "Protein sequences, listed by entry. Tags and fused reporters are not part of them. Residues count along the entry.", "UniProt O75143, 12-200, chain 1 of 2": "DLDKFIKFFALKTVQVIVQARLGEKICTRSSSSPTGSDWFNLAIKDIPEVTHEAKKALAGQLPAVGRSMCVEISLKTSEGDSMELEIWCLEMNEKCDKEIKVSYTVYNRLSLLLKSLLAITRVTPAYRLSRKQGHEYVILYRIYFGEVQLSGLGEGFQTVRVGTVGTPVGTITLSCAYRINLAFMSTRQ", "ATG13 (12–200):ATG101 (1–198) complex, UniProt Q9BSB4, 1-198, chain 2 of 2": "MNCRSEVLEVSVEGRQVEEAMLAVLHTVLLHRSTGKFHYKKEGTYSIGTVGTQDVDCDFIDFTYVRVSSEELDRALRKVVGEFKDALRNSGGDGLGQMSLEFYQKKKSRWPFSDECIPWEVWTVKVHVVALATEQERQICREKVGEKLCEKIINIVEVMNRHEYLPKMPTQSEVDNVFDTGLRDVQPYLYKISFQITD"}, "source": "paper PMC9931213", "about": "“Structural basis for ATG9A recruitment to the ULK1 complex in mitophagy initiation” (Science Advances, 2023)", "binders": {"B1": {"name": "MBP-ATG9A (801–839) (domain or fragment, human, UniProt Q7Z3C6 801-839, looked up)", "chain": "FSRLPLGGWAEDGQSASRHPEPVPEEGSEDELPPQVHKV", "notes": "source: HEK GnTi- cells, transfected, purified (amylose resin, Superose 6); not shown: MBP, N-terminal, kept"}}, "target": "ATG13 (12–200):ATG101 (1–198) complex (human, UniProt O75143 12-200; Q9BSB4 1-198)", "assay": "ITC; MBP-ATG9 (801–839) 240 μM injected (13 injections of 2.7 μl) into 0.2 ml of 17 μM ATG101-ATG13 HORMA complex; ITC buffer (25 mM Hepes pH 7.5, 150 mM NaCl, 1 mM MgCl2, 1 mM TCEP); one-site model; repeated four times", "conditions": "both partners purified"}
{"binder": "B1", "values": [{"measurement": "Kd", "result": "2400 ± 300", "unit": "nM"}, {"measurement": "stoichiometry N", "result": "0.82 ± 0.03"}]}
